Patent publication US20240109879A1, “BENZIMIDAZOLE COMPOUND AND APPLICATION THEREOF” (Medshine Discovery Inc., priority 2020, published 2024)

Sequences of proteins named here, by UniProt entry; tags and fusion partners are left off. Residues count along the entry.
UniProt Q09472, 1049-1156 limits assumed: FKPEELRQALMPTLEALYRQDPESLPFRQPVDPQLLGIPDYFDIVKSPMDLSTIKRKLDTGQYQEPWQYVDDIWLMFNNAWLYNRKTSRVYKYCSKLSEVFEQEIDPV
UniProt Q12809, whole entry: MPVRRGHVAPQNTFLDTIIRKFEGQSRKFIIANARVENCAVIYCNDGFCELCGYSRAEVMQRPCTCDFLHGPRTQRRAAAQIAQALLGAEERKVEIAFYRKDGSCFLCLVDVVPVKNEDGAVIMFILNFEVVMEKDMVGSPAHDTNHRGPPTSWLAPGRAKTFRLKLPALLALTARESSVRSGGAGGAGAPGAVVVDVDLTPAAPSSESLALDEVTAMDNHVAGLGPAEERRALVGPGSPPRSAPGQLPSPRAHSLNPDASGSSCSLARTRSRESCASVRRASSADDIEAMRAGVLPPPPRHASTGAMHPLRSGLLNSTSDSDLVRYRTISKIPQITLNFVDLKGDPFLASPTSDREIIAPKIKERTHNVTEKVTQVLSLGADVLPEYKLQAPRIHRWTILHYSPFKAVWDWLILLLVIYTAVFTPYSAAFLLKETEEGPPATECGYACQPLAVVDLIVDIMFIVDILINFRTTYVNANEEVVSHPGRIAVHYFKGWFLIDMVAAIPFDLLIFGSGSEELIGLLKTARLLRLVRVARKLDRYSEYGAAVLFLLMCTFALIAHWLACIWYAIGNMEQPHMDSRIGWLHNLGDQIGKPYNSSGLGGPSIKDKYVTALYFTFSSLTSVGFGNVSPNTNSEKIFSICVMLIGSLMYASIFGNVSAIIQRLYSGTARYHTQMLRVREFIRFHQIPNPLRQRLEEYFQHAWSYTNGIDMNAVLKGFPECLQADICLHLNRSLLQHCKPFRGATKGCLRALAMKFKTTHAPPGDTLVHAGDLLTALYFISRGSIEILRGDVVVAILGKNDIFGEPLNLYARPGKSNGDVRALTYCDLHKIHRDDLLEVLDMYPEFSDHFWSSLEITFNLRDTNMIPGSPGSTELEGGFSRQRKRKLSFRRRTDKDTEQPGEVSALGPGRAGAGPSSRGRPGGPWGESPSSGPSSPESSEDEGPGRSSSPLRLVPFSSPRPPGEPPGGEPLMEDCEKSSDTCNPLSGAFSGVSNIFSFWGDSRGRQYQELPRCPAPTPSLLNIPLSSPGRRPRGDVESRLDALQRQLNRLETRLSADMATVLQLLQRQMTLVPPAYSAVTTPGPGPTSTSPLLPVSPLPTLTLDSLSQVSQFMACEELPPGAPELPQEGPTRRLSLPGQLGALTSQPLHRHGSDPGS

What was measured:
p300 = p300 (Homo sapiens (Human), UniProt Q09472); experiment: Assay of p300 protein activity (HTRF, p300-GST with Histone H4 (1-21) K5/8/12/16Ac-GG-Biotin peptide ligand); details: read-out: p300 (IC50), 5 nM p300-GST, 50 nM peptide ligand
[1] = target: hERG potassium ion channel (Homo sapiens (Human), UniProt Q12809)
[2] = Pharmacokinetic study in CD-1 mice (intravenous injection and oral gavage); details: male CD-1 mice; for Bioavailability F (%): gavage 3 mg/kg vs intravenous 0.5 mg/kg; for Cmax: read-out: Plasma drug concentration Cmax

SMILES | IC50 (p300) [nM] | IC50 [1] [nM] | Bioavailability F (%) [2] [%] | Area under curve (0-inf) AUC0-inf ([2]; gavage, 3 mg/kg) [µM·h] | Area under curve (0-t) AUC0-last ([2]; gavage, 3 mg/kg) [µM·h] | Time to peak Tmax ([2]; gavage, 3 mg/kg) [min] | half-life T1/2 ([2]; gavage, 3 mg/kg) [min] | Apparent distribution volume Vdss ([2]; intravenous, 0.5 mg/kg) [L/kg] | Area under curve (0-inf) AUC0-inf ([2]; intravenous, 0.5 mg/kg) [µM·h] | Area under curve (0-t) AUC0-last ([2]; intravenous, 0.5 mg/kg) [µM·h] | Clearance Cl ([2]; intravenous, 0.5 mg/kg) [mL/min/kg] | half-life T1/2 ([2]; intravenous, 0.5 mg/kg) [min] | Cmax ([2]; gavage, 3 mg/kg) [nM]
CO[C@H]1CC[C@H](n2c(C3CCSC(=O)N3c3ccc(F)c(F)c3)nc3cc(-c4c(C)noc4C)ccc32)CC1 (some centres unmarked) | 11 | – | – | – | – | – | – | – | – | – | – | – | –
COC12CCC(n3c(C4CC5CC5C(=O)N4c4ccc(F)c(F)c4)nc4cc(-c5c(C)noc5C)ccc43)(CC1)CC2 (single isomer, unassigned) | – | > 40000 | 54 | 2.07 | 2.019 | 45 | 101 | 1.33 | 0.637 | 0.624 | 22.9 | 43.9 | 546
CO[C@H]1CC[C@H](n2c(C3CC4CC4C(=O)N3c3ccc(F)c(F)c3)nc3c(C)c(-c4c(C)noc4C)ccc32)CC1 (some centres unmarked) | 10.3 | – | – | – | – | – | – | – | – | – | – | – | –
COC12CCC(n3c(C4CCCC(=O)N4c4ccc(F)c(F)c4)nc4cc(-c5c(C)noc5C)ccc43)(CC1)CC2 (single isomer, unassigned) | – | > 40000 | 40 | 1.598 | 1.588 | 30 | 49.8 | 1.46 | 0.652 | 0.626 | 22.8 | 46.8 | 1280
